# Results as given in ChEMBL document CHEMBL1145598, “Discovery and preclinical studies of 5-isopropyl-6-(5-methyl-1,3,4-oxadiazol-2-yl)-N-(2-methyl-1H-pyrrolo[2,3-b]pyridin-5-yl)pyrrolo[2,1-f][1,2,4]triazin-4-amine (BMS-645737), an in vivo active potent VEGFR-2 inhibitor” (Bioorg Med Chem Lett, 2008).
# Organism: Homo sapiens
# Experiment: Protein binding in human plasma
# Settings: read-out: PPB (converted)
structure (smiles),measurement,value
Cc1cc2cc(Nc3ncnn4cc(-c5nnc(C)o5)c(C(C)C)c34)cnc2[nH]1,fraction unbound,0.028
